Marks after values point to notes of the source that are not given here.
Conditions: oral 75 mg paclitaxel equivalents/animal, fasted male beagle dogs (N = 4)

Substance: paclitaxel undecanoate
- AUC0-t(parent)/AUC0-t(prodrug) (conversion prodrug to parent): 1.48%
- AUC0-t of paclitaxel (parent): 24.3 ng·h/mL
- AUC0-t of prodrug: 1778^b) hr * ng/mL
- AUC0-∞ of paclitaxel (parent): 52.0 ng·h/mL
- AUC0-∞ of prodrug: 1882^c) hr * ng/mL
- Cmax of paclitaxel (parent): 2.26 ng/mL
- Cmax of prodrug: 422^a) ng/mL
- Tmax of paclitaxel (parent): 8.00 h
- Tmax of prodrug: 2.00 h
- t1/2 of paclitaxel (parent): 19.6 h
- t1/2 of prodrug: 6.44 h

— patent publication US11197828B2, “Solid oral dosage form of lipophilic compounds” (SOLURAL PHARMA APS, priority 2014, dated 2021)
